From ChEMBL document CHEMBL1127857, “Antitumor agents. 155. Synthesis and biological evaluation of 3',6,7-substituted 2-phenyl-4-quinolones as antimicrotubule agents” (J Med Chem, 1994)

Tested on: NCI-H226
Assay: Tested for in vitro tumor cell growth inhibition of non-small cell lung cancer cell line NCI-H226
Assay type: functional
Conditions: Homo sapiens

Structure (SMILES): CC(=O)Nc1ccc2nc(-c3cccc(F)c3)cc(O)c2c1
- GI50: 23.4 µM
